The text below walks through data of patent publication US11673889B2, “Substituted imidazo[4,5-c][1,8]naphthyridines as phosphodiesterase inhibitors” (Nanjing Zhengxiang Pharmaceuticals Co., Ltd., priority 2019, dated 2023).

Sequences of proteins named here, by UniProt entry; tags and fusion partners are left off. Residues count along the entry.
UniProt P22413, whole entry: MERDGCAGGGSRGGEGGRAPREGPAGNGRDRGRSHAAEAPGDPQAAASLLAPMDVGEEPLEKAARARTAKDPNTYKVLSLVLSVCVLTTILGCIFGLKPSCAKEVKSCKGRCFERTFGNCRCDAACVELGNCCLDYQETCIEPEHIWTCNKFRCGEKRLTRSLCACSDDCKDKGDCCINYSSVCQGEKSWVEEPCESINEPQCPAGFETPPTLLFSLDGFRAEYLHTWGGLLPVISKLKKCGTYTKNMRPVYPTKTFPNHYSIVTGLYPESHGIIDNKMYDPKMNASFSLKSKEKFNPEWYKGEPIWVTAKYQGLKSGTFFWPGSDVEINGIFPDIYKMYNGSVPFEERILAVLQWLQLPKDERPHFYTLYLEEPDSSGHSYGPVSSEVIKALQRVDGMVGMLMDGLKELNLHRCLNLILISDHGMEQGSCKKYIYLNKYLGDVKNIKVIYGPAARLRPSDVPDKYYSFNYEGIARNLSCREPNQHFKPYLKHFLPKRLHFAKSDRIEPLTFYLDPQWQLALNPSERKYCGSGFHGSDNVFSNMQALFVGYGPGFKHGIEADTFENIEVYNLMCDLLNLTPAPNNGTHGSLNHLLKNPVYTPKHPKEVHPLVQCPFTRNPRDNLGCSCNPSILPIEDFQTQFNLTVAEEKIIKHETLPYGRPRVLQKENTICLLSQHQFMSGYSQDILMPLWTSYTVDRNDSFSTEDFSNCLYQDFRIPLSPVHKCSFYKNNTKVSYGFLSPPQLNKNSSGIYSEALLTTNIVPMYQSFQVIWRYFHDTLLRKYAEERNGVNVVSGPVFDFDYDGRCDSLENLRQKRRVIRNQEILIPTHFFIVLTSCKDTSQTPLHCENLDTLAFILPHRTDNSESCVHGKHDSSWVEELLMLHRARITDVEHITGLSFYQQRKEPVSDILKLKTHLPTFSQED
UniProt P22413, 103-925 limits assumed: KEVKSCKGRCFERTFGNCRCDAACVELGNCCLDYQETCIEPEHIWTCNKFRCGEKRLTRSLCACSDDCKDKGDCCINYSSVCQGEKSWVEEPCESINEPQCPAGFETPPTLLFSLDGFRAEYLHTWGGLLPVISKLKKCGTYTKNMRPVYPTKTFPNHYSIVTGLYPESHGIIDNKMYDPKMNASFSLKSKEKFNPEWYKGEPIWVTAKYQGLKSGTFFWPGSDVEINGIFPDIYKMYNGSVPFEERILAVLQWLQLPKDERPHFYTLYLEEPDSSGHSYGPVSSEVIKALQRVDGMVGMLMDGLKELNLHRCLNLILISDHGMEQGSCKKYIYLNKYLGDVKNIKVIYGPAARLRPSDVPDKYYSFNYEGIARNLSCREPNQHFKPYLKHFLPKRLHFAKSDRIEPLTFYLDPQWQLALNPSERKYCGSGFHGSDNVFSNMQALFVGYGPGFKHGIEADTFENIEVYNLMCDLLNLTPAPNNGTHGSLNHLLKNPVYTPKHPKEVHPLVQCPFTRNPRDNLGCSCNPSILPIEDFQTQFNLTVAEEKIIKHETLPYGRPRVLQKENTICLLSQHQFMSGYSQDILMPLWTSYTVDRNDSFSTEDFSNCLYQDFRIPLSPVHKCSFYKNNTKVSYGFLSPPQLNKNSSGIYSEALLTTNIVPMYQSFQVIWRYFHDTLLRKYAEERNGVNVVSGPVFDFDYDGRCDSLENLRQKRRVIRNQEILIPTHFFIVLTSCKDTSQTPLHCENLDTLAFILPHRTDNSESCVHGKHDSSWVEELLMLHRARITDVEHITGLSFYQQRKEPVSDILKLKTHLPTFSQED

Series [1] concerns the target T1, human soluble ENPP1 (Homo sapiens, UniProt P22413). The series can be described thus: ENPP1 activity assay using p-Nitrophenyl-5′-TMP as a substrate. The conditions noted are these: read-out: TMP-pNP (IC50), 20 ng human soluble ENPP1, Tris buffer pH 9.5.
The nature of another series: Pharmacokinetics in mice. The conditions noted are these: male CD-1 mice; 1 mg/kg, iv. On the procedure: A dosing solution of test sample was prepared at 1.0 mg/mL in 5% DMSO/40% PEG400/55% water and administered to male CD-1 mice (4-6 weeks old, 20-30 grams, 3 animals each group) via intravenous (IV) bolus at 1 mg/kg and by oral gavage (PO) at 5 mg/kg. Blood samples (˜0.03 mL each time point) were collected via the jugular vein into tubes containing sodium heparin as the anticoagulant at 0.033, 0.083, 0.25, 0.5, 1, 2, 4, 8 and 24 hours post dose for IV administration and 0.083, 0.25, 0.5, 1, 2, 4, 8 and 24 hours post dose for PO administration. The blood samples were then centrifuged for 5 minutes in a centrifuge refrigerated at 4° C. The resultant plasma samples were analyzed using LC/MS/MS to determine concentrations of test sample. Non-compartmental model with WinNonlin (Phoenix™, version 8.0) software was used to calculate pharmacokinetic (PK) parameters.

Series [2] addresses T1, human soluble ENPP1. As to the kind of experiment: ENPP1 activity assay using p-Nitrophenyl-5′-AMP as a substrate. It is filed as biochemical. The conditions noted are these: read-out: AMP-pNP (IC50), 35 ng human soluble ENPP1, Tris buffer pH 9.5.
The target of a further series is ENPP-1, MDA-MB-231 cells (Homo sapiens, UniProt P22413). The conditions noted are these: for inhibition: 20 µM.

Turning to `COc1ccc2c(c1)nnc1[nH]c(=O)n(Cc3ccc(S(N)(=O)=O)cc3)c12`, at human soluble ENPP1 [1], the IC50 came to 1.1 nM. Besides, in the series “Pharmacokinetics in mice”, the “AUC” value was determined as 429 ng·h/mL, the “Cl” value came to 39 mL/min/kg, the “T1/2” value is reported as 1.2 h and the volume of distribution (Vdss) stood at 1.6 L/kg. For the same compound, the IC50 at human soluble ENPP1 [2] is 2.4 nM. On ENPP-1, MDA-MB-231 cells, this compound came in with an IC50 of 1800 nM and an inhibition of 59%.
On ENPP-1, MDA-MB-231 cells, `COc1ccc2c(n1)nc(C)c1nc(C)n(Cc3ccc(P(=O)(O)O)cn3)c12` showed an IC50 of 480 nM and an inhibition of 80%.
As for `COc1ccc2c(c1)nnc1cnn(Cc3ccc(S(N)(=O)=O)c(F)c3)c12`, the IC50 stood at 2.9 nM at human soluble ENPP1 [1]; 8.2 nM at human soluble ENPP1 [2]; 2000 nM at ENPP-1, MDA-MB-231 cells. In addition, at ENPP-1, MDA-MB-231 cells, the inhibition was 70%.
